Data reported in PubChem BioAssay AID1259370 (Center for Chemical Genomics, University of Michigan, 2018).
Only a part is listed here, and it is no random draw. Activity calls are given as the source filed them. Rule as the data show it: active = z-score above about 3.2; inactive = the rest.

By UniProt entry, the sequences of proteins in these tests, tags left out. Where a name states a change or a piece, a line headed by the entry shows the natural chain unless it says otherwise.
UniProt P30305: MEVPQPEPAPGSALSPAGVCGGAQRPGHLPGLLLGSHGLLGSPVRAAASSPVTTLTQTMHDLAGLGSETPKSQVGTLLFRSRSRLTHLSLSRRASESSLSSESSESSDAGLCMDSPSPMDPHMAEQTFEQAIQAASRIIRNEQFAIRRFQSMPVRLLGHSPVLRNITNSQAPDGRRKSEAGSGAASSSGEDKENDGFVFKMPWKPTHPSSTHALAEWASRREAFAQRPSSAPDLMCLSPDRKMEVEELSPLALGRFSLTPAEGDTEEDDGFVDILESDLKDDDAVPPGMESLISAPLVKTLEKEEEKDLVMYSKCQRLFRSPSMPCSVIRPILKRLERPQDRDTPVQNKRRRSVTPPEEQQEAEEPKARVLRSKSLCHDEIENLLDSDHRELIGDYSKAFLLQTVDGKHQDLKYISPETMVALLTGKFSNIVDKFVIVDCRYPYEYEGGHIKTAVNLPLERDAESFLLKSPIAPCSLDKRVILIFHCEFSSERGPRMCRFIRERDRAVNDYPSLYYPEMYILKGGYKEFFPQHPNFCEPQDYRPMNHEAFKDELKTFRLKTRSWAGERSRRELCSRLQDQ
UniProt P20248, whole entry, looked up: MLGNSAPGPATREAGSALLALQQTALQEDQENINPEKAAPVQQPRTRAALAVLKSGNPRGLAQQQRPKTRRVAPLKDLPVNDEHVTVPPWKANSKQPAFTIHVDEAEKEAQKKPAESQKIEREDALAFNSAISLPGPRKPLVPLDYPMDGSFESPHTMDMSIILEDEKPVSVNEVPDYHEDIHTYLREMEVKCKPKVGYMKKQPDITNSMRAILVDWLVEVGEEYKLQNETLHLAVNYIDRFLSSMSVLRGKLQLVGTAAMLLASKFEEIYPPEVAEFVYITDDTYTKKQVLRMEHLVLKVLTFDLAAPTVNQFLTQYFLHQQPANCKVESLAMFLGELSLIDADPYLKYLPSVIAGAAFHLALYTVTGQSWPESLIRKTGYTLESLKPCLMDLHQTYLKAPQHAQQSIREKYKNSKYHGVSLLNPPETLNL

target: M-phase inducer phosphatase 2 (Homo sapiens) + Cyclin-dependent kinase 2 (Homo sapiens) + Cyclin-A2 (Homo sapiens) (UniProt P30305+P24941+P20248); test: primary biochemical HTRF screen for inhibition of M-phase inducer phosphatase 2 binding to cyclin-dependent kinase 2/cyclin A (AID 1259370); settings: HTRF CDC25B-CDK2/CyclinA binding, anti-His/anti-Flag; stronger effect = higher value

SMILES	z-score
CN(C(=O)Cc1ccc(Cl)c(Cl)c1)[C@@H]1CCCC[C@@H]1N1CCCC1	active: 3.92
